This note sets out measurements from ChEMBL document CHEMBL4342468, “Evolution of a 4-Benzyloxy-benzylamino Chemotype to Provide Efficacious, Potent, and Isoform Selective PPARα Agonists as Leads for Retinal Disorders” (J Med Chem, 2020).

What is called Kd is the free concentration of one partner at which half of the binding sites on the other are occupied at equilibrium, for simple one-to-one binding. Higher therefore signals weaker binding.

Experiment [1] addresses T1, Peroxisome proliferator-activated receptor alpha (Homo sapiens) (UniProt Q07869).
T1 sequence (whole entry): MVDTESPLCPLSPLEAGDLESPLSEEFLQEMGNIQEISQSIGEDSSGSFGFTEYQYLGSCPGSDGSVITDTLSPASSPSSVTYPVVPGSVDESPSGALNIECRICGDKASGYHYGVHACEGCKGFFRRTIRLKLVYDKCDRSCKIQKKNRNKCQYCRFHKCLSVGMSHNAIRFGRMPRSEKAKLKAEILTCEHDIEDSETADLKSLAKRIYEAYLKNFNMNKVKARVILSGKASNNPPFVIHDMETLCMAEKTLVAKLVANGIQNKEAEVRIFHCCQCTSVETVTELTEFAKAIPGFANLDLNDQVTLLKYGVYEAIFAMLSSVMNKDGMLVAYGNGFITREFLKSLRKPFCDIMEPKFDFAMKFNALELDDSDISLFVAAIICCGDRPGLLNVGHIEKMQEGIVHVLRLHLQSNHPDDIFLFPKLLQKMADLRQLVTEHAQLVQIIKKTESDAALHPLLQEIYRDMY
The experiment in a line: Binding affinity to His-tagged PPARalpha LBD (unknown origin) expressed in Escherichia coli Rosetta (DE3) assessed as change in Gibbs free energy at 25 degree C by isothermal titration calorimetry.

Experiment [2] has as its target T2, Peroxisome proliferator-activated receptor alpha (Homo sapiens, UniProt Q07869).
T2 sequence (Q07869 whole entry): T1 sequence (whole entry)
In words: Binding affinity to His-tagged PPARalpha LBD (unknown origin) expressed in Escherichia coli Rosetta (DE3) at 25 degree C by isothermal titration calorimetry. A general note: Isothermal titration calorimetry measures the heat released or taken up as one component is titrated into another.

For experiment [3], the target named is T1, Peroxisome proliferator-activated receptor alpha (Homo sapiens). In words: Agonist activity at human PPARalpha expressed in nonhuman mammalian cells assessed as maximal increase in receptor transcriptional activity incubated for 22 to 24 hrs by luciferase reporter gene assay relative to GW590735. It is filed as cell-based.
Experiment [4] shares this target. The experiment in a line: Binding affinity to His-tagged PPARalpha LBD (unknown origin) expressed in Escherichia coli Rosetta (DE3) assessed as change in enthalpy at 25 degree C by isothermal titration calorimetry.

Molecules are shown by their SMILES.

`COc1ccc(COc2ccc(CNc3cccc(C(=O)O)c3)cc2)cc1`: the deltaG in experiment [1] was -6.5 kcal/mol. Further, in experiment [2], binding was characterised by a dissociation constant (Kd) of 16.9 µM. Moreover, in experiment [3], the fold change (FC) was 1.4. In addition, the deltaH in experiment [4] was -12.2 kcal/mol.
As for `Cc1nc(-c2ccc(C(F)(F)F)cc2)sc1C(=O)NCc1ccc(OC(C)(C)C(=O)O)cc1` [GW590735], in experiment [1], the deltaG was -9.24 kcal/mol. This molecule showed a dissociation constant (Kd) in experiment [2] of 0.17 µM.
